This passage reports IC50 results from patent US10040791B2, “Isoxazole derivative as mutant isocitrate dehydrogenase 1 inhibitor” (Daiichi Sankyo Company, Limited, priority 2014, dated 2018).

Chains of the proteins cited; added tags and fusions are not shown.
UniProt O75874, whole entry R132H: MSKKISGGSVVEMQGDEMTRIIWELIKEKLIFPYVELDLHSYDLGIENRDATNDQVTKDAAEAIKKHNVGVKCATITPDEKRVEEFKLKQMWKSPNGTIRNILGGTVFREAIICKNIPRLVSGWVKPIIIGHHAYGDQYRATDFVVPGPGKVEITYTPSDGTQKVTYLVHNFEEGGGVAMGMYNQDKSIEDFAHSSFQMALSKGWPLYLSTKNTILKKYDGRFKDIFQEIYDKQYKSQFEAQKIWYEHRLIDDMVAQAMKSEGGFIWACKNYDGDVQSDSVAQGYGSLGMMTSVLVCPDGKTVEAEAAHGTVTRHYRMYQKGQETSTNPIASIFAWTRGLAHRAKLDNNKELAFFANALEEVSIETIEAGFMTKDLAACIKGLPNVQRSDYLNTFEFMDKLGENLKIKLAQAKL

Structures are written as SMILES. Like-named read-outs stand apart in the source and are kept apart here.

One experiment concerns the target IDH1R132H (Homo sapiens (Human), UniProt O75874, R132H). As to the kind of experiment: Inhibitory activity against IDH1R132H enzyme (NADPH detection, WST-8). Format: biochemical. To be noted: 12 nM, residual NADPH detected with WST-8, read-out: Test Example 1 IDH1 R132H IC50. (In general: Tetrazolium dyes change colour on reduction, which living cells bring about.)

The test system of experiment [1] is IDH1R132H-expressing TF-1 cells (TF-1/IDH1R132H). Kind of experiment: Inhibitory activity of 2-HG production using IDH1R132H-expressing TF-1 cells. Format: cell-based, human. To be noted: Homo sapiens.
The next experiment relates to TF-1/IDH1R132H cells. Kind of experiment: Inhibitory activity of TF-1/IDH1R132H cell growth (ATPlite). To be noted: Homo sapiens, read-out: Test Example 4 IC50. It counts as cell-based, human.
Where [2] appears, read: 2-HG production, IDH1R132H-expressing TF-1 cells, read-out: Test Example 2 IC50.

Broadly, the IC50 is the concentration at which inhibition is half-maximal.

In the case of `Cc1cn(C(=O)c2c(-c3c(Cl)cc(Cl)cc3Cl)noc2C2(N)CCC2)c2cccc(/C=C/C(=O)O)c12` [Example 90, (2E)-3-(1-{[5-(1-Aminocyclobutyl)-3-(2,4,6-trichlorophenyl)-1,2-oxazol-4-yl]carbonyl}-3-methyl-1H-indol-4-yl)prop-2-enoic acid], the 50% inhibitory concentration (IC50) is 0.007 µM on IDH1R132H, 65 nM in experiment [1] (setting [2]) and 0.372 µM with TF-1/IDH1R132H cells.
For `C=Cc1ccc(-c2onc(-c3c(Cl)cc(Cl)cc3Cl)c2C(=O)n2ccc3c(/C=C/C(=O)O)cccc32)cn1` [Example 73, (2E)-3-(1-{[5-(6-Ethenylpyridin-3-yl)-3-(2,4,6-trichlorophenyl)-1,2-oxazol-4-yl]carbonyl}-1H-indol-4-yl)prop-2-enoic acid], the IC50 in experiment [1] (TF-1, read-out: Test Example 2 IC50 (nM)) is 14 nM; with TF-1/IDH1R132H cells, 0.015 µM.
With `Cc1cn(C(=O)c2c(-c3ccc(Cl)cc3Cl)noc2C2(C)COC2)c2cccc(/C=C/C(=O)O)c12` [Example 78, (2E)-3-(1-{[3-(2,4-Dichlorophenyl)-5-(3-methyloxetan-3-yl)-1,2-oxazol-4-yl]carbonyl}-3-methyl-1H-indol-4-yl)prop-2-enoic acid], the figures for the IC50 (in experiment [1] (setting [2]); in the experiment with TF-1/IDH1R132H cells) were 204 nM and 0.518 µM, respectively.
As to `CN(C)c1onc(-c2c(Cl)cccc2Cl)c1C(=O)n1ccc2c(/C=C/C(=O)O)cccc21` [Example 133, (2E)-3-(1-{[3-(2,6-Dichlorophenyl)-5-(dimethylamino)-1,2-oxazol-4-yl]carbonyl}-1H-indol-4-yl)prop-2-enoic acid], the 50% inhibitory concentration (IC50) on IDH1R132H is 0.01 µM.
As for `Cc1cn(C(=O)c2c(-c3c(Cl)cc(Cl)cc3Cl)noc2C2(N(C)C)CC2)c2cccc(/C=C/C(=O)O)c12` [Example 82, (2E)-3-(1-{[5-[1-(Dimethylamino)cyclopropyl]-3-(2,4,6-trichlorophenyl)-1,2-oxazol-4-yl]carbonyl}-3-methyl-1H-indol-4-yl)prop-2-enoic acid], the half-inhibitory concentration (IC50) at IDH1R132H was found to be 0.013 µM.
Take `C=CC(=O)N1CCC(c2onc(-c3c(Cl)cccc3Cl)c2C(=O)n2cc(C)c3c(/C=C/C(=O)O)cccc32)CC1` [Example 108]: the IC50 on IDH1R132H was 0.035 µM.
Take `CC1(c2onc(-c3c(Cl)cccc3Cl)c2C(=O)n2ccc3c(/C=C/C(=O)O)cccc32)COC1` [Example 75, (2E)-3-(1-{[3-(2,6-Dichlorophenyl)-5-(3-methyloxetan-3-yl)-1,2-oxazol-4-yl]carbonyl}-1H-indol-4-yl)prop-2-enoic acid]: the IC50 on IDH1R132H came out at 0.011 µM.
Consider `CC(C)(C)c1onc(-c2c(Cl)cc(Cl)cc2Cl)c1C(=O)N1CCc2c(/C=C/C(=O)O)cccc21` [Example 32, (2E)-3-(1-{[5-(tert-Butyl)-3-(2,4,6-trichlorophenyl)-1,2-oxazol-4-yl]carbonyl}-2,3-dihydro-1H-indol-4-yl)prop-2-enoic acid], for which the half-maximal inhibitory concentration (IC50) at IDH1R132H came to 0.043 µM.
The same measure, in the same setting: with `C#CC(=O)N1CC(c2onc(-c3c(Cl)cc(Cl)cc3Cl)c2C(=O)n2ccc3c(/C=C/C(=O)O)cccc32)C1` [Example 101] the figure was 0.016 µM.
Still for that read-out and setting: with `C=CC(=O)N1C[C@@H](C)N(c2onc(-c3c(Cl)cc(Cl)cc3Cl)c2C(=O)n2ccc3c(/C=C/C(=O)O)cccc32)[C@@H](C)C1` [Example 151, (2E)-3-(1-{[5-(4-Acryloyl-cis-2,6-dimethylpiperazin-1-yl)-3-(2,4,6-trichlorophenyl)-1,2-oxazol-4-yl]carbonyl}-1H-indol-4-yl)prop-2-enoic acid] the figure was 0.098 µM; with `C=CC(=O)N1CC(OC)(c2onc(-c3c(Cl)cc(Cl)cc3Cl)c2C(=O)n2ccc3c(/C=C/C(=O)O)cccc32)C1` [Example 97], 0.019 µM; with `C=CC(=O)N1CCC(c2onc(-c3c(C)cc(C)cc3C)c2C(=O)n2ccc3c(/C=C/C(=O)O)cccc32)CC1` [Example 109], 0.127 µM.
With `Cc1cn(C(=O)c2c(-c3c(Cl)ccc(F)c3Cl)noc2C(C)C)c2cccc(/C=C/C(=O)O)c12` [Example 30, (2E)-3-(1-{[3-(2,6-Dichloro-3-fluorophenyl)-5-(propan-2-yl)-1,2-oxazol-4-yl]carbonyl}-3-methyl-1H-indol-4-yl)prop-2-enoic acid], the 50% inhibitory concentration (IC50) on IDH1R132H was found to be 0.012 µM.
For the compound `C/C=C/C(=O)N1CCC(c2onc(-c3c(Cl)cc(Cl)cc3Cl)c2C(=O)n2cc(C)c3c(/C=C/C(=O)O)cccc32)CC1` [Example 119], at IDH1R132H, the IC50 is 0.073 µM.
`C=CC(=O)N1CCC(c2onc(-c3c(C)cc(Cl)cc3C)c2C(=O)n2ccc3c(/C=C/C(=O)O)cccc32)CC1` [Example 110]: on IDH1R132H, the IC50 came to 0.158 µM.
`C=CC(=O)N1CCN(c2onc(-c3c(Cl)cc(Cl)cc3Cl)c2C(=O)n2ccc3c(/C=C/C(=O)O)cccc32)C[C@H]1C` [Example 148, (2E)-3-[1-({5-[(3R)-4-Acryloyl-3-methylpiperazin-1-yl]3-(2,4,6-trichlorophenyl)-1,2-oxazol-4-yl}carbonyl)-1H-indol-4-yl]prop-2-enoic acid]: the half-maximal inhibitory concentration (IC50) on IDH1R132H stood at 0.167 µM.
As for `C=CC(=O)N1CCN(c2onc(-c3c(Cl)cccc3Cl)c2C(=O)n2ccc3c(/C=C/C(=O)O)cccc32)CC1` [Example 142, (2E)-3-(1-{[5-(4-Acryloylpiperazin-1-yl)-3-(2,6-dichlorophenyl)-1,2-oxazol-4-yl]carbonyl}-1H-indol-4-yl)prop-2-enoic acid], at IDH1R132H, the half-inhibitory concentration (IC50) was found to be 0.083 µM.
`Cc1cc(C)c(-c2noc(C(C)(C)F)c2C(=O)n2cc(C)c3c(/C=C/C(=O)O)cccc32)c(C)c1` [Example 60, (2E)-3-(1-{[5-(2-Fluoropropan-2-yl)-3-(2,4,6-trimethylphenyl)-1,2-oxazol-4-yl]carbonyl}-3-methyl-1H-indol-4-yl)prop-2-enoic acid]: on IDH1R132H, the IC50 turned out to be 0.018 µM.
Take `Cn1cc(C(=O)c2c(-c3c(Cl)cc(Cl)cc3Cl)noc2C(C)(C)C)c2cccc(/C=C/C(=O)O)c21` [Example 164]: the half-inhibitory concentration (IC50) came out at 255 nM in experiment [1] (setting [2]) and 0.674 µM in the experiment with TF-1/IDH1R132H cells.
On to `COC1(c2onc(-c3c(F)cc(Cl)cc3Cl)c2C(=O)n2cc3c4c(cccc42)/C(=C/C(=O)O)CC3)CCC1` [Example 15, (2E)-[1-{[3-(2,4-Dichloro-6-fluorophenyl)-5-(1-methoxycyclobutyl)-1,2-oxazol-4-yl]carbonyl}-3,4-dihydrobenzo[cd]indol-5(1H)-ylidene]ethanoic acid], for which the 50% inhibitory concentration (IC50) at IDH1R132H was determined as 0.012 µM.
On the same count and under the same terms, for `CC(C)(C)c1onc(-c2c(Cl)cccc2Cl)c1C(=O)n1ccc2c(/C=C/C(=O)O)cccc21` [Example 24, (2E)-3-(1-{[5-(tert-Butyl)-3-(2,6-dichlorophenyl)-1,2-oxazol-4-yl]carbonyl}-1H-indol-4-yl)prop-2-enoic acid] the value was 0.03 µM; for `COc1cc(Cl)cc(Cl)c1-c1noc(C(C)(C)F)c1C(=O)n1cc(C)c2c(/C=C/C(=O)O)cccc21` [Example 58, (2E)-3-(1-{[3-(2,4-Dichloro-6-methoxyphenyl)-5-(2-fluoropropan-2-yl)-1,2-oxazol-4-yl]carbonyl}-3-methyl-1H-indol-4-yl)prop-2-enoic acid], 0.027 µM; for `Cc1cn(C(=O)c2c(-c3c(Cl)cc(Cl)cc3Cl)noc2C(C)C)c2cccc(/C=C/C(=O)O)c12` [Example 29, (2E)-3-(1-{[5-(Propan-2-yl)-3-(2,4,6-trichlorophenyl)-1,2-oxazol-4-yl]carbonyl}-3-methyl-1H-indol-4-yl)prop-2-enoic acid], 0.014 µM.
For `Cc1cn(C(=O)c2c(-c3ccc(Cl)c(F)c3Cl)noc2C(C)(C)F)c2cccc(/C=C/C(=O)O)c12` [Example 17], on IDH1R132H, the concentration for half-maximal inhibition (IC50) turned out to be 0.024 µM.
